From patent US20160346368A1 come the findings set out here.

One experiment has as its target PVR-CD4TM-GFP (human). In words: flow cytometry; HEK-293T cells transfected with PVR-CD4TM-GFP; PE anti-human Fc.
Experiment [1] addresses PVR S72N variant-CD4TM-GFP (human). In words: flow cytometry; HEK-293T cells transfected with PVR S72N variant-CD4TM-GFP; PE anti-human Fc.
The target of experiment [2] is PVR Q82K+S72N double variant-CD4TM-GFP (human). In words: flow cytometry; HEK-293T cells transfected with PVR Q82K+S72N double variant-CD4TM-GFP; PE anti-human Fc.
Experiment [3] deals with PVR Q82K variant-CD4TM-GFP (human). In words: flow cytometry; HEK-293T cells transfected with PVR Q82K variant-CD4TM-GFP; PE anti-human Fc.

For “PVRL3-Fc (from UniProt Q9NQS3 58-404) (Fc fusion)”, the MFI came out at 219 with PVR-CD4TM-GFP (human), 194 in experiment [1], 355 in experiment [2] and 558 in experiment [3].
